Patent US11352316B2, “Opioid receptor modulators and products and methods related thereto” (priority 2018, dated 2022)

System: Male Sprague-Dawley rats
Assay: Respiratory depression assay (whole body plethysmograph)
Details: rat, 30 mg/kg SC after fentanyl 3 mg/kg SC, FIG. 2

CN(C)[C@H](CNC(=O)[C@@H]1C[C@]1(C)c1ccccc1)Cc1ccc(O)cc1Cl [Compound B-15, (1R,2S)—N—((S)-3-(2-chloro-4-hydroxyphenyl)-2-(dimethylamino)propyl)-2-methyl-2-phenylcyclopropane-1-carboxamide] was tested, and the “effect on respiratory depression of fentanyl (minute volume, % of baseline)” value was “blocks in vivo the respiratory depression of the MOR agonist fentanyl”.
